Measured values: publication PMC3821307

What was measured:
[1] = biological target: His6-RAGE VC1 natural domain; experiment: electrochemical biosensor (Osteryoung square-wave voltammetry of the Cu(II) redox current); His6-RAGE domain immobilised on a gold electrode through NAC/DPTA-Cu(II); 10 μL peptide (0.001-1 μM) deposited for 30 min; 50 mM TRIS hydrochloride, 300 mM NaCl, pH 7.4; room temperature; response (In−I0)/I0 × 100%; n = 7
[2] = biological target: His6-RAGE VC1 natural domain; experiment: electrochemical biosensor (Osteryoung square-wave voltammetry of the Cu(II) redox current); His6-RAGE VC1 immobilised on a gold electrode through NAC/DPTA-Cu(II); Aβ1–40 (0.001-1 μM) in filtered human plasma diluted twice with TRIS buffer (50 mM TRIS hydrochloride, 300 mM NaCl, pH 7.4); response (In−I0)/I0 × 100%; n = 7

**Q.** “Aβ1–40 peptide (from UniProt P05067 672-711)” was tested. Which (In−I0)/I0 [%] at 0.001 μM [1] did it give?
**A.** -10.1%

**Q.** And the (In−I0)/I0 [%] at 0.01 μM [1]?
**A.** -17.4%

**Q.** And the (In−I0)/I0 [%] at 0.1 μM [1]?
**A.** -24.2%

**Q.** What about the (In−I0)/I0 [%] at 1 μM [1] of the same substance?
**A.** -32.4%

**Q.** And the (In−I0)/I0 [%] at 0.001 μM [2]?
**A.** -14%

**Q.** What about the (In−I0)/I0 [%] at 0.01 μM [2] of the same substance?
**A.** -23.9%

**Q.** And the (In−I0)/I0 [%] at 0.1 μM [2]?
**A.** -32.2%

**Q.** And the (In−I0)/I0 [%] at 1 μM [2]?
**A.** -41.2%
